According to US4267192A, “Method for treating inflammation” (priority 1980, dated 1981):
Where two headings read alike, the source gives them in different places.

Test system: rat stomach (gastric ulcers, gastric swelling)
Type: in vivo, rat (male Charles River, Sprague-Dawley)
Settings: for Number of Animals With Gastric Ulcers: po
Procedure: The rats are divided into groups 6-10 and dosed by the oral route with test compound, on a mg/kg. body weight basis, or vehicle control, 0.5% carboxymethylcellulose, in a volume of 3 ml. per rat. Four hours after dosing, the rats are decapitated and exsanguinated. Stomachs are removed and examined for gastric swelling and then opened and washed for visual inspection of gastric ulcers. Only one lesion or gastric bleeding is necessary for a positive response. Data is reported quantally.

For `CC(=O)Oc1ccccc1C(=O)O` [Aspirin, aspirin, reference compound], the “effects on the gastric tract” value (in vivo) was “significant effects on the gastric tract”, the “Number of Animals With Gastric Ulcers” value (in vivo, 60 mg/kg) was 0/10 and the “Number of Animals With Gastric Ulcers” value (in vivo, 120 mg/kg) was 0/10. For the same compound, the “Number of Animals With Gastric Ulcers” value (in vivo, 240 mg/kg) was 0/10, the “Number of Animals With Gastric Ulcers” value (in vivo, 480 mg/kg) was 0/10 and the “Number of Animals With Gastric Swelling” value (oral 120 mg/kg, 4 hours after dosing) was 3/10. For the same compound, the “blood present (number of animals)” value (oral 240 mg/kg, 4 hours after dosing) was 3/10 and the “blood present (number of animals)” value (oral 480 mg/kg, 4 hours after dosing) was 7/10.
